Yeast mating assay 1: variants of the scFv Ab-14

Source: Engelhart et al. 2022 (doi:10.1038/s41597-022-01779-4), MIT Lincoln Laboratory and A-Alpha Bio; data file from the FLAb repository.

Target peptide (SARS-CoV-2 spike, HR2 region): PDVDLGDISGINAS

Ab-14 is the parent antibody, in scFv form: VH, then the linker GGGGSGGGGSGGGGS, then VL. The light chain is unchanged in all variants.
VH: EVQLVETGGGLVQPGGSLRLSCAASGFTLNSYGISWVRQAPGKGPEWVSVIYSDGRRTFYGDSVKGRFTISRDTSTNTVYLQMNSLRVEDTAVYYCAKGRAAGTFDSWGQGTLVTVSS
VL: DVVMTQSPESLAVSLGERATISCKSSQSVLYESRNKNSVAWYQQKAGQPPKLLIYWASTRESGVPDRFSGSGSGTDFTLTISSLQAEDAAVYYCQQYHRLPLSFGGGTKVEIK

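The starting antibody came from a phage panning campaign against this peptide. In library AAYL49, one, two or three CDR residues were substituted; doubles and triples were drawn at random. Affinity was read by AlphaSeq, a pooled yeast mating assay with surface-displayed partners. The frequency of each diploid, read from paired DNA barcodes, reflects how well the two displayed proteins bind. Scores were corrected for input abundance and mapped to Kd with protein pairs of known affinity run in the same pool. Each pool was mated in three replicate cultures.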

Substitutions are numbered in sequence along the VH above, starting at 1 (not Kabat). Scale: log10 of Kd in nM, estimated from mating counts; low values are strong binders. Replicates are averaged; those with no signal do not enter the mean. An entry "n.d." has no value in the source: the pair was not observed among the diploids in that replicate. This suggests poor binding but is not conclusive.

| changes | log10 Kd, replicates | mean log10 Kd (nM) |
|---|---|---|
| N30T+R57N | n.d. / 2.30 / 3.07 | 2.68 |
| R57M+D62V+T104S | n.d. / n.d. / n.d. | n.d. |
| G26N+R100T+F105T | 1.90 / 1.45 / 1.61 | 1.66 |
| I34W+G61L | n.d. / n.d. / n.d. | n.d. |
| I51H+Y52R+G61W | n.d. / 4.01 / 4.28 | 4.14 |
| L29Q+G103W | n.d. / n.d. / n.d. | n.d. |
| S53K+S63M | n.d. / n.d. / n.d. | n.d. |
| G55S+R57F+D62A | n.d. / 4.25 / n.d. | 4.25 |
| G33C+I34K+R100S | n.d. / 2.73 / 4.05 | 3.39 |
| D54F+R56F+S63W | n.d. / n.d. / n.d. | n.d. |
| N30Q+R56C+S107L | 1.60 / 1.44 / 1.67 | 1.57 |
| S35C+A101Q+F105T | n.d. / n.d. / n.d. | n.d. |
| S53G+A101R+D106S | 3.35 / 3.09 / n.d. | 3.22 |
| Y32M+T104L+D106K | n.d. / n.d. / n.d. | n.d. |
| G33H+D54A+S107R | n.d. / n.d. / 3.89 | 3.89 |
| I51W+R56Q+A101Q | n.d. / n.d. / n.d. | n.d. |
| S53K+G99P+D106N | 3.86 / 4.16 / n.d. | 4.01 |
| R56S+Y60A+A101Q | 2.87 / 2.47 / 2.45 | 2.60 |
| V64A+K65C+R100Y | 2.08 / 1.96 / 2.31 | 2.12 |
| S35N+D54E+S63R | n.d. / 3.63 / n.d. | 3.63 |
| F27G+D54E+R57H | n.d. / n.d. / 3.77 | 3.77 |
| N30D+S63F+G99W | n.d. / n.d. / 4.52 | 4.52 |
| I51D+G55E+R57G | n.d. / n.d. / 4.04 | 4.04 |
| D62I+S63P+S107W | n.d. / n.d. / n.d. | n.d. |

Continued, with the values leading:

| log10 Kd, replicates | mean log10 Kd (nM) | changes |
|---|---|---|
| n.d. / 4.52 / n.d. | 4.52 | I34F+Y52C+T104G |
| n.d. / n.d. / n.d. | n.d. | G55D+G61C+G103D |
| n.d. / n.d. / n.d. | n.d. | T28K+G55K+T58R |
| n.d. / n.d. / n.d. | n.d. | L29Q+G55M+D62F |
| n.d. / n.d. / n.d. | n.d. | G26S+R57P+Y60E |
| n.d. / n.d. / n.d. | n.d. | T28S+D54G+S63F |
| 3.73 / n.d. / n.d. | 3.73 | F27C+R100F+A102P |
| n.d. / n.d. / n.d. | n.d. | R57T+F59V+D62M |
| n.d. / 2.02 / n.d. | 2.02 | G26A+R56N+Y60L |
| n.d. / n.d. / 4.44 | 4.44 | L29E+V50Y+S63P |
| n.d. / n.d. / n.d. | n.d. | I34P+A101S |
| n.d. / n.d. / n.d. | n.d. | F105G+D106H |
| n.d. / n.d. / n.d. | n.d. | S35N+F105M+D106C |
| 4.06 / n.d. / 3.10 | 3.58 | Y32W+Y60F+A101M |
| 0.23 / 0.60 / 0.20 | 0.34 | N30S+G103A |
| 4.41 / n.d. / n.d. | 4.41 | Y32W+G103H+F105E |
| n.d. / 3.79 / n.d. | 3.79 | I51D+R56I+S63F |
| 4.45 / n.d. / n.d. | 4.45 | F59Q+G61K+V64M |
| n.d. / n.d. / n.d. | n.d. | S35N+I51S+V64N |
| 5.33 / n.d. / n.d. | 5.33 | S35Y+Y52G+S53W |
| 1.78 / 1.69 / 2.49 | 1.99 | T28W+N30H+S31G |
| 4.03 / n.d. / n.d. | 4.03 | N30M+Y32A+F105Y |
| 2.16 / 2.02 / 2.43 | 2.20 | S31L+R56F+D106I |
| 4.24 / n.d. / n.d. | 4.24 | S63Y+K65F+G99A |

Three control strains display no target. For library AAYL49, 15% of the pairings with them gave a signal, with a median of 4.06 and one signal in twenty below 2.83, so weak values seen in few replicates may be background. In this assay the parent's reference entry averaged 0.65; its copy inside this library read 4.11 (one replicate of three).